Reference: PubChem BioAssay AID2313 (Broad Institute, 2010)
The entries are a selection whose mix differs from that of the whole data set. Calls of active or inactive are those of the source.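 How the source made its calls: active means mean inhibition across valid replicates above about 65% (limit read from the data); inconclusive means mean under the limit, yet half or more replicates past it; inactive means the rest.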

assay: Hedgehog pathway signaling inhibitors, primary screen, luminescence, Shh-LIGHT2 cells, Gli-luciferase (AID 2313); settings: Shh-LIGHT2 Gli-luciferase reporter, 30 h; active compounds read high;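 further: pathway switched on by Shh-conditioned medium diluted 1 in 25 in low serum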

Structure (SMILES) | inhibition
CN(C(=O)Cc1ccc(Cl)c(Cl)c1)[C@H]1CCCC[C@@H]1N1CCCC1 | active: 70.2%
